This note sets out measurements from PubChem BioAssay AID624202 (National Center for Advancing Translational Sciences (NCATS), 2012).

The structures appear in SMILES notation. This is a selection; strong and weak results do not stand in their true shares. Activity calls are given as the source filed them. Calls follow the shape of the dose curve; as a rule, active = well fitted activation curve with a large enough effect; inconclusive = small, poorly fitted or top-dose-only effect; inactive = no such curve, though single readings can be large or run the other way.

A short description of this assay: qHTS Assay to Identify Small Molecule Activators of BRCA1 Expression. Also: nearly all actives have a fitted effect of over 80% in size. The note with it: MCF7-BRCA1-FFLuc reporter, luminescence, 48 h, scaled: vehicle 0%, 10 µM genistein 100%; at 46.1 µM (top of the series). (qHTS replaces the single test concentration by a dilution series.)
As to `COc1ccc(OP(C)(=O)Nc2cccc(F)c2)cc1` (stereo not drawn), the activation is inactive: -0.0093%.

Take `Cc1cc(C)cc(OP(C)(N)=O)c1` (stereo not drawn): the activation was inactive: -2.98%.

Consider `O=[N+]([O-])c1cc([N+](=O)[O-])c(Nc2cccnc2)c([N+](=O)[O-])c1`, for which the activation was inactive: -45.2%.

Take `CC(C)(C)c1ccc(OP(C)(=O)Nc2ccc(SC(F)(F)F)cc2)cc1` (stereo not drawn): the activation was inactive: -89.5%.

Regarding `Cc1cccc(C)c1OP(C)(N)=O` (stereo not drawn), the activation was inactive: -7.46%.

For the compound `O=[N+]([O-])c1ccc2c(c1)C=Nc1ccccc1O2`, the activation is inactive: -33.6%.

Take `COc1ccccc1-c1ccccn1.O=[N+]([O-])c1cc([N+](=O)[O-])c(O)c([N+](=O)[O-])c1`: the activation was inactive: 20.8%.

As for `CCN(CC)CCCOC(=O)C(O)(c1ccccc1)c1ccccc1`, the activation was inactive: -5.74%.

`CCOP(C)(=S)SCC(=O)NC(C)C(=O)O` (stereo not drawn): the activation was inactive: 1.62%.

Consider `O=[N+]([O-])c1cc([N+](=O)[O-])c(O)c([N+](=O)[O-])c1.c1ccc(Oc2ccncc2)cc1`, for which the activation was inactive: 0%.

As to `CCOC(=O)c1ccc(NP(C)(=O)Oc2ccc(OC)cc2)cc1` (stereo not drawn), the activation is inactive: -15.9%.

In the case of `CP(=O)(Nc1ccccn1)Oc1ccc(Cl)cc1` (stereo not drawn), the activation was inactive: 0.645%.

As for `CP(=O)(Nc1ccc(SC(F)(F)F)cc1)Oc1ccc(Cl)cc1` (stereo not drawn), the activation was inactive: -35.6%.

Regarding `Cc1cccc(C)c1OP(C)(=O)Nc1ccc(SC(F)(F)F)cc1` (stereo not drawn), the activation is inactive: 1.64%.

With `CP(=O)(Oc1ccccc1)OC(c1ccccc1)C(F)(F)F` (stereo not drawn), the activation is inactive: -1.52%.

As for `CP(=O)(NC(=O)Nc1ccccc1)Oc1ccccc1` (stereo not drawn), the activation was inactive: 0.889%.

On to `CCc1ccc(OP(C)(=O)N2CCN(c3ccc([N+](=O)[O-])cc3)CC2)cc1` (stereo not drawn), for which the activation was inactive: -1.05%.

As for `Cc1cc(C)cc(OP(C)(=O)Nc2ccc(SC(F)(F)F)cc2)c1` (stereo not drawn), the activation is inactive: -32.8%.

Take `CP(=S)(Nn1cnnc1)Oc1ccccc1` (stereo not drawn): the activation is inactive: -1.59%.

For `COc1ccccc1OP(C)(=O)Nc1ccccc1` (stereo not drawn), the activation was inactive: -0.323%.

For `CP(=O)(Nc1ccccc1Br)Oc1ccccc1` (stereo not drawn), the activation is inactive: 1.66%.

Regarding `Nc1ccc2c(ccc3cccnc32)n1.O=[N+]([O-])c1cc([N+](=O)[O-])c(O)c([N+](=O)[O-])c1`, the activation was inactive: 59.6%.

With `CP(=O)(OC12CC3CC(CC(C3)C1)C2)OC12CC3CC(CC(C3)C1)C2`, the activation is inactive: -20.9%.

For `CCOC(=O)c1ccc(NP(C)(=O)Oc2ccc(Cl)cc2)cc1` (stereo not drawn), the activation was inactive: -14.4%.

In the case of `CP(=O)(Nc1ccc(Cl)cc1)Oc1ccc(F)cc1` (stereo not drawn), the activation was inactive: 22.1%.

Regarding `COc1ccccc1OP(C)(=O)Nc1ccccc1Br` (stereo not drawn), the activation is inactive: -4.03%.

As for `CC(C)(C)c1ccc(OP(C)(=O)O)cc1`, the activation was inactive: 7.21%.

On to `CN(C)C(=O)c1c([N+](=O)[O-])cc([N+](=O)[O-])cc1[N+](=O)[O-]`, for which the activation is inactive: -86.6%.

For `CCN(CC)CC(O)COC(=O)C(O)(c1ccccc1)C1CCCCC1` (stereo not drawn), the activation was inactive: -0.163%.

With `COc1ccc(OP(C)(=O)Nc2ccc(Br)cc2)cc1` (stereo not drawn), the activation was inactive: -14%.

On to `CP(=O)(Oc1ccccc1)N1CCOC1=O` (stereo not drawn), for which the activation is inactive: -21.3%.

Consider `CCc1ccc(OP(C)(=O)Nc2cccnc2)cc1` (stereo not drawn), for which the activation is inactive: -25.1%.

For `COc1ccccc1OP(C)(=O)Nc1c(C)n(C)n(-c2ccccc2)c1=O` (stereo not drawn), the activation was inactive: -14%.

In the case of `O=C(OCCCN1CCCC1)C(O)(c1ccccc1)C1CCCCC1` (stereo not drawn), the activation was inactive: -13.8%.

As to `Cc1c(NP(C)(=O)Oc2ccc(C(C)C)cc2)c(=O)n(-c2ccccc2)n1C` (stereo not drawn), the activation was inactive: 1.01%.

Take `O=[N+]([O-])c1cc([N+](=O)[O-])c(Nc2ccccn2)c([N+](=O)[O-])c1`: the activation was inactive: -90.7%.

Regarding `CCc1ccc(OP(C)(=O)O)cc1`, the activation is inactive: -1.24%.

As to `CP(=O)(Nc1ccccn1)Oc1ccccc1` (stereo not drawn), the activation was inactive: 11.2%.

As for `COc1ccccc1OP(C)(=O)Nc1ccc(C)cc1C` (stereo not drawn), the activation is inactive: 0%.

Consider `COc1ccccc1OP(C)(=O)Nc1ccc(Br)cc1` (stereo not drawn), for which the activation was inactive: -9.94%.

Turning to `CN(C)CCOC(=O)C(O)(c1ccccc1)C1CCCC1` (stereo not drawn), the activation is inactive: -4.68%.

With `COc1ccc(OP(C)(=O)Nc2ccccn2)cc1` (stereo not drawn), the activation is inactive: -6.77%.

For `CP(=O)(Nc1ccc(Cl)cc1Cl)Oc1ccccc1` (stereo not drawn), the activation was inactive: 18.9%.

As for `CCCCCCCCCCCCCCCC1C[N+](C)(C)CCOP(C)(=O)O1` (stereo not drawn), the activation was inactive: -71.1%.

With `CP(=O)(OCCOc1ccccc1)OCCOc1ccccc1`, the activation is inactive: -13.1%.

For the compound `Cc1cc(C)cc(OP(C)(=O)Nc2cccc(C(F)(F)F)c2)c1` (stereo not drawn), the activation is inactive: -11.3%.

Turning to `COc1ccc(OP(C)(=O)Nc2ccccc2Br)cc1` (stereo not drawn), the activation is inactive: -8.35%.

As for `COc1ccccc1OP(C)(=O)Nc1ccc(C)c(C)c1` (stereo not drawn), the activation was inactive: -4.5%.

Consider `CCN(CC)CCCOC(=O)C(O)(c1ccccc1)C1CCCCC1` (stereo not drawn), for which the activation is inactive: -0.0274%.

In the case of `Cc1c([N+](=O)[O-])cc([N+](=O)[O-])c(Br)c1[N+](=O)[O-]`, the activation was inactive: -6.14%.

For `CCCCCOc1ccc(NP(C)(=O)Oc2ccc(Cl)cc2Cl)cc1` (stereo not drawn), the activation is inactive: -65.9%.

With `CP(=O)(Nc1ccccc1)Oc1ccc(F)cc1` (stereo not drawn), the activation is inactive: 0.943%.

As to `COc1ccc(OP(C)(=O)Nc2ccc(SC(F)(F)F)cc2)cc1` (stereo not drawn), the activation was inactive: -26.4%.

`CCOC(=O)c1ccc(NP(C)(=O)Oc2ccc(F)cc2)cc1` (stereo not drawn): the activation was inactive: -0.983%.

As to `O=C(OCCN1CCN(CCOCc2ccccc2)CC1)C(O)(c1ccccc1)c1ccccc1`, the activation was inactive: 17.2%.

Consider `CC(C)c1ccc(OP(C)(=O)Nc2ccc(SC(F)(F)F)cc2)cc1` (stereo not drawn), for which the activation was inactive: -64.4%.

Regarding `CP(=O)(Nc1ccccc1F)Oc1ccccc1` (stereo not drawn), the activation is inactive: 0.334%.

Take `CP(=O)(Nc1ccc2c(c1)OCCO2)Oc1ccccc1` (stereo not drawn): the activation was inactive: 3.95%.

With `O=[N+]([O-])c1cc([N+](=O)[O-])c(C(F)(F)F)c([N+](=O)[O-])c1O`, the activation is inactive: 1.33%.

As to `Cc1ccccc1NP(C)(=O)Nc1ccccc1C`, the activation is inactive: -3.23%.

Turning to `CP(=O)(Nc1ccc(SC(F)(F)F)cc1)Oc1ccc(F)cc1` (stereo not drawn), the activation is inactive: -13.4%.

Turning to `CCOP(C)(=S)SCC(=O)NC(C)(CC)C(=O)O` (stereo not drawn), the activation is inactive: 12%.

On to `Cc1cc(-c2cccc3ccccc23)c(C)cn1.O=[N+]([O-])c1cc([N+](=O)[O-])c(O)c([N+](=O)[O-])c1`, for which the activation was inactive: -44%.

As for `O=[N+]([O-])c1ccc(OP2(=O)COCCO2)cc1` (stereo not drawn), the activation was inactive: -2.92%.

For the compound `Cc1c(C(c2ccc3c(c2)OCO3)c2c(C)n(C)n(-c3ccccc3)c2=O)c(=O)n(-c2ccccc2)n1C.O=[N+]([O-])c1cc([N+](=O)[O-])c(O)c([N+](=O)[O-])c1`, the activation was inactive: 0.694%.

For the compound `COc1ccc(OP(C)(=O)Nc2cccc(Br)c2)cc1` (stereo not drawn), the activation was inactive: -3.16%.

Consider `COc1ccc(NP(C)(=O)Oc2ccccc2OC)cc1` (stereo not drawn), for which the activation was inactive: 10.1%.

Take `CN(C)CCOC(=O)C(O)(c1ccccc1)C1CCCCC1` (stereo not drawn): the activation was inactive: 0%.
